Reference: patent EP4840453A1, “CANCER TREATMENT AGENT CONTAINING CLK INHIBITOR AS ACTIVE INGREDIENT” (dated 2026)

Legend:
OVCAR-8 cells = assay: Model with subcutaneous transplantation of OVCAR-8 cells (tumor volume T/C, body weight), Example 5; settings: for %BWL (Daily maximum): BALB/c nude mice, day in parentheses; for T/C(%): Day 22; for Number of animals removed: N 6; for Average tumor volume (mm^3) day22: day 22
NCI-H661 = assay: Cell proliferation assay (ATPlite 1Step), single agents and combination with Compound A, curve-shift and CI; 72 h culture, 120 h for EPZ-6438, JQ1, MLN-4924, MLN-7243, MPI-0479605, NMS-P715
MV-4-11 cells [1] = assay: Model with subcutaneous transplantation of MV-4-11 cells (tumor volume T/C, body weight), two-agent combinations, Example 3; settings: for %BWL (Daily maximum): BALB/cA Jcl-nu/nu mice, day in parentheses; for T/C(%): Day 15; for Number of animals removed: N 5
MV-4-11 cells [2] = assay: Model with subcutaneous transplantation of MV-4-11 cells (tumor volume T/C, body weight), three-agent combination, Example 4; settings: for %BWL (Daily maximum): BALB/cA Jcl-nu/nu mice, day in parentheses; for Number of animals removed: N 5
HL-60 = assay: Cell proliferation assay (ATPlite 1Step), single agents and combination with Compound A, curve-shift and CI; 72 h culture, 120 h for EPZ-6438, JQ1, MLN-4924, MLN-7243, MPI-0479605, NMS-P715
MC38 cells = assay: Model with subcutaneous transplantation of MC38 cells (tumor volume T/C, body weight), Example 2; settings: G2, 12.5 mg/kg PO BID BIW
[3] = NCI-H661, blending ratio (Compound A : combined compound) 4:1, Fa 75
[4] = Compound A + combined compound at fixed concentration 1 µM, Fa 75
[5] = Compound A + combined compound at fixed concentration 1 µM, Fa 90
[6] = blending ratio (Compound A : combined compound) 1:1, Fa 50
[7] = blending ratio (Compound A : combined compound) 1:1, Fa 75
[8] = blending ratio (Compound A : combined compound) 1:1, Fa 90
[9] = blending ratio (Compound A : combined compound) 1:4, Fa 50
[10] = blending ratio (Compound A : combined compound) 1:4, Fa 75
[11] = blending ratio (Compound A : combined compound) 1:4, Fa 90
[12] = blending ratio (Compound A : combined compound) 4:1, Fa 50
[13] = blending ratio (Compound A : combined compound) 4:1, Fa 75
[14] = blending ratio (Compound A : combined compound) 4:1, Fa 90
[15] = NCI-H661, Compound A + combined compound at fixed concentration 3.2 µM, Fa 50
[16] = NCI-H661, Compound A + combined compound at fixed concentration 3.2 µM, Fa 75
[17] = Compound A + combined compound at fixed concentration 3.2 µM, Fa 50

## CC(=O)O[C@H]1C(=O)[C@@]2(C)[C@H]([C@H](OC(=O)c3ccccc3)[C@]3(O)C[C@H](OC(=O)[C@H](O)[C@@H](NC(=O)c4ccccc4)c4ccccc4)C(C)=C1C3(C)C)[C@]1(OC(C)=O)CO[C@@H]1C[C@@H]2O
OVCAR-8 cells; G6, 15 mg/kg IV QD Q4D
  Average change in tumor volume (mm^3) (Day 22 - Day0): 168.8 mm^3
  %BWL (Daily maximum): -1.3(4) %
  T/C(%): 79.4%
  Number of animals removed: 0
  Average tumor volume (mm^3) day22: 327.4 mm^3

## CC(=O)O[C@@]12CO[C@@H]1C[C@H](O)[C@@]1(C)C(=O)[C@H](O)C3=C(C)[C@@H](OC(=O)[C@H](O)[C@@H](NC(=O)OC(C)(C)C)c4ccccc4)C[C@@](O)([C@@H](OC(=O)c4ccccc4)[C@H]21)C3(C)C
NCI-H661; NCI-H661, blending ratio (Compound A : combined compound) 1:4, Fa 75
  CI: 0.10
NCI-H661; [3]
  CI: 0.10
OVCAR-8 cells; G4, 20 mg/kg IV QD QW
  Average change in tumor volume (mm^3) (Day 22 - Day0): 85.3 mm^3
  %BWL (Daily maximum): -3.1 (18) %
  T/C(%): 40.1%
  Number of animals removed: 0
  Average tumor volume (mm^3) day22: 243.6 mm^3

## carboplatin
OVCAR-8 cells; G5, 50 mg/kg IP QD QW
  Average change in tumor volume (mm^3) (Day 22 - Day0): 108.6 mm^3
  %BWL (Daily maximum): 0.0(0) %
  T/C(%): 51.1%
  Number of animals removed: 0
  Average tumor volume (mm^3) day22: 267.0 mm^3

## Nc1ccn([C@@H]2O[C@H](CO)[C@@H](O)[C@@H]2O)c(=O)n1
MV-4-11 cells [1]; G5, 25 mg/kg IP QD Q2D
  Average change in tumor volume (mm^3) (Day 15 - Day 1): 247.5 mm^3
  %BWL (Daily maximum): 0.0(1) %
  T/C(%): 42.2%
  Number of animals removed: 0
  Average tumor volume (mm^3) day 15: 385.8 mm^3

## Nc1ncn([C@@H]2O[C@H](CO)[C@@H](O)[C@H]2O)c(=O)n1
MV-4-11 cells [2]; G5, 5 mg/kg SC QD BIW
  Average change in tumor volume (mm^3) (Day 15 - Day 1): 344.6 mm^3
  %BWL (Daily maximum): 0.0(0) %
  Number of animals removed: 0
  Average tumor volume (mm^3) day 15: 452.2 mm^3
MV-4-11 cells [2]; G5, 5 mg/kg SC QD BIW, Day 15
  T/C(%): 85.2%
MV-4-11 cells [1]; G6, 5 mg/kg SC QD BIW
  Average change in tumor volume (mm^3) (Day 15 - Day 1): 446.6 mm^3
  %BWL (Daily maximum): 0.0(1) %
  T/C(%): 76.1%
  Number of animals removed: 0
  Average tumor volume (mm^3) day 15: 579.2 mm^3

## NC(=O)c1cccc2cn(-c3ccc([C@@H]4CCCNC4)cc3)nc12
HL-60; [4]
  CI: 0.87
HL-60; [5]
  CI: 1.01
OVCAR-8 cells; G3, 37.5 mg/kg PO QD QD
  Average change in tumor volume (mm^3) (Day 22 - Day0): 172.9 mm^3
  %BWL (Daily maximum): -3.4(4) %
  T/C(%): 81.3%
  Number of animals removed: 0
  Average tumor volume (mm^3) day22: 331.3 mm^3

## CC[C@@]1(O)C(=O)OCc2c1cc1n(c2=O)Cc2cc3c(CN(C)C)c(O)ccc3nc2-1
HL-60; [6]
  CI: 0.82
HL-60; [7]
  CI: 0.87
HL-60; [8]
  CI: 0.92
HL-60; [9]
  CI: 0.97
HL-60; [10]
  CI: 0.96
HL-60; [11]
  CI: 0.93
HL-60; [12]
  CI: 0.87
HL-60; [13]
  CI: 0.91
HL-60; [14]
  CI: 0.95
NCI-H661; NCI-H661, blending ratio (Compound A : combined compound) 1:1, Fa 50
  CI: 0.88
NCI-H661; NCI-H661, blending ratio (Compound A : combined compound) 1:1, Fa 90
  CI: 0.10
NCI-H661; NCI-H661, blending ratio (Compound A : combined compound) 1:4, Fa 90
  CI: 0.10
NCI-H661; NCI-H661, blending ratio (Compound A : combined compound) 4:1, Fa 50
  CI: 1.07
NCI-H661; [3]
  CI: 0.56

## CC(C)(C)c1cc(NC(=O)Nc2ccc(-c3cn4c(n3)sc3cc(OCCN5CCOCC5)ccc34)cc2)no1
MV-4-11 cells [1]; G3, 0.3 mg/kg PO QD 5ON/2OFF
  Average change in tumor volume (mm^3) (Day 15 - Day 1): 418.7 mm^3
  %BWL (Daily maximum): 0.0(1) %
  T/C(%): 71.3%
  Number of animals removed: 0
  Average tumor volume (mm^3) day 15: 552.2 mm^3
NCI-H661; Compound A : combined compound 4:1, Fa 75, 72 h culture
  CI: 0.50

## CC1(C)CCC(c2ccc(Cl)cc2)=C(CN2CCN(c3ccc(C(=O)NS(=O)(=O)c4ccc(N[C@H](CCN5CCOCC5)CSc5ccccc5)c(S(=O)(=O)C(F)(F)F)c4)cc3)CC2)C1
HL-60; [6]
  CI: 1.05
HL-60; [7]
  CI: 0.67
HL-60; [8]
  CI: 0.60
HL-60; [9]
  CI: 1.06
HL-60; [11]
  CI: 0.67
HL-60; [12]
  CI: 1.10
HL-60; [13]
  CI: 0.91
HL-60; [14]
  CI: 0.79
NCI-H661; [15]
  CI: 0.88
NCI-H661; [16]
  CI: 0.81

## COc1ncnn2ccc(-c3cnc4nc(C)n(Cc5nnc([C@@H](C)F)o5)c4c3)c12
MV-4-11 cells [2]; Day 15, female BALB/cA Jcl-nu/nu mice, single agent (G2), Compound A 6.25 mg/kg PO BID BIW, 14 days
  T/C value (%): 1.8%
MV-4-11 cells [2]; G2, 6.25 mg/kg PO BID BIW
  Average change in tumor volume (mm^3) (Day 15 - Day 1): 7.2 mm^3
  %BWL (Daily maximum): 0.0(0) %
  Number of animals removed: 0
  Average tumor volume (mm^3) day 15: 118.5 mm^3
MV-4-11 cells [2]; G2, 6.25 mg/kg PO BID BIW, Day 15
  T/C(%): 1.8%
MC38 cells
  Average change in tumor volume (mm^3) (Day 12 - Day 0): 1770 mm^3
MC38 cells; C57BL/6 mice, day in parentheses
  %BWL (Daily maximum): 0.0(0) %
MC38 cells; Day 12
  T/C(%): 72.2%
MC38 cells; N 10
  Number of animals removed: 0
MC38 cells; day 12
  Average tumor volume (mm^3) day12±SEM: 1874.4±156.1 mm^3
MV-4-11 cells [1]; G2, 6.25 mg/kg PO BID BIW
  Average change in tumor volume (mm^3) (Day 15 - Day 1): 106.2 mm^3
  %BWL (Daily maximum): 0.0(1) %
  T/C(%): 18.1%
  Number of animals removed: 0
  Average tumor volume (mm^3) day 15: 241.6 mm^3
OVCAR-8 cells; G2, 12.5 mg/kg PO BID BIW
  Average change in tumor volume (mm^3) (Day 22 - Day0): 113.9 mm^3
  %BWL (Daily maximum): -1.7(4) %
  T/C(%): 53.6%
  Number of animals removed: 0
  Average tumor volume (mm^3) day22: 272.7 mm^3

## FC(F)(F)c1ccc(CNc2ccc(Cc3c[nH]c4ncc(Cl)cc34)cn2)cn1
HL-60; [17]
  CI: 0.78
HL-60; Compound A + combined compound at fixed concentration 3.2 µM, Fa 75
  CI: 0.85
HL-60; Compound A + combined compound at fixed concentration 3.2 µM, Fa 90
  CI: 0.96
NCI-H661; [15]
  CI: 0.69
NCI-H661; [16]
  CI: 0.17

## CC[C@@H]1C(=O)N(C)c2cnc(Nc3ccc(C(=O)N[C@H]4CC[C@H](N5CCN(CC6CC6)CC5)CC4)cc3OC)nc2N1C(C)C
HL-60; [6]
  CI: 0.99
HL-60; [7]
  CI: 0.92
HL-60; [8]
  CI: 0.96
HL-60; [9]
  CI: 0.90
HL-60; [10]
  CI: 0.86
HL-60; [11]
  CI: 0.71
HL-60; [12]
  CI: 0.97
HL-60; [13]
  CI: 0.99
HL-60; [14]
  CI: 1.02
NCI-H661; NCI-H661, blending ratio (Compound A : combined compound) 1:1, Fa 75
  CI: 0.10
NCI-H661; NCI-H661, blending ratio (Compound A : combined compound) 1:4, Fa 50
  CI: 0.79
NCI-H661; [3]
  CI: 0.10

## Cc1ccc(NC(=O)c2ccc(CN3CCN(C)CC3)cc2)cc1Nc1nc(-c2cccnc2)cs1
HL-60; [17]
  CI: 0.90
NCI-H661; [15]
  CI: 0.90

## C[C@@H]1CN(CC(=O)Nc2ccc3c(c2)Cc2cccc(-c4cc(=O)cc(N5CCOCC5)o4)c2S3)C[C@H](C)O1
HL-60; Compound A + combined compound at fixed concentration 1 µM, Fa 50
  CI: 0.84
HL-60; [4]
  CI: 0.82
HL-60; [5]
  CI: 0.82
NCI-H661; NCI-H661, Compound A + combined compound at fixed concentration 1 µM, Fa 50
  CI: 0.81
